Results published in patent US11583516B2, “Dash inhibitors, and uses related thereto” (Trustees of Tufts College, priority 2016, dated 2023).

Test system: CT26 tumor
Format: in vivo

Structure (SMILES): N[C@H](C(=O)N1CCC[C@H]1B(O)O)C12CC3CC(CC(C3)C1)C2 (relative stereo) [ARI-5544, Gly(1-adamantyl)-boroPro]
- Antitumor efficacy alone, comparison (5 micrograms alone, intraperitoneal or intratumoral, established CT26, treated 10 days after inoculation): outperforms 50 micrograms of ARI-4175 alone
- Tumor regression in triple therapy (5 micrograms with anti-PD-1 antibody and anti-CTLA-4 inhibitor): complete regression of tumors in several of the treated animals
